Only a part of the results on these compounds is given; other tests are left out.
Legend:
[1] = test system: monoclonal anti-TNT antibody EW75C (mouse IgG1); assay: indirect competitive ELISA
[2] = test system: monoclonal anti-2,4,6-trinitrotoluene (TNT) antibody A1.1.1 (mouse, subtype IgG1); assay: indirect competitive ELISA; also kinetic-competition immunofluorometric biosensor with Dy-654-labeled antibody

Work on `Cc1c([N+](=O)[O-])cc([N+](=O)[O-])cc1[N+](=O)[O-]` yielded an IC50 [1] of 36 nM and an IC50 [2] of 1.2 nM.

Source: paper PMC7460505
